Test results from PubChem BioAssay AID1508623 (National Center for Advancing Translational Sciences (NCATS), 2021).
Several values for one entry are separate records, joined by “and”; a condition that tells them apart may be missing. Equal entries are not always repeated. The entries are a selection whose mix differs from that of the whole data set. Results filed as inconclusive are left out. Activity calls are given as the source filed them. Calls come from the whole dose curve; as a rule, active = well fitted inhibition curve with a large enough effect; inconclusive = small, poorly fitted or top-dose-only effect; inactive = no such curve, though single readings can be large or run the other way.

Test: Primary qHTS for Identification of Small Molecule Inhibitors of Huntingtin Promoter Activity; note: nearly all actives have a fitted effect of over 50% in size
Conditions: HEK293 HTT promoter firefly luciferase reporter (activity 0% = vehicle and -100% = no light), 24 h; at 57.5 µM (top of the series) unless noted
Source text: Assay Provider: Russell L. Margolis M.D.
Department Neurology, Johns Hopkins University School of Medicine, Baltimore, MD
Huntington's Disease (HD) is a neurodegenerative disorder caused by a CAG repeat expansion in exon 1 of huntingtin (HTT). While there are currently no disease-modifying treatments for HD, recent efforts have focused on development of nucleotide-based therapeutics to lower HTT expression. As an alternative to siRNA or oligonucleotide methods, we hypothesized that suppression of HTT expression might be accomplished by small molecules that either (1) directly decrease HTT expression by suppressing HTT promoter activity or (2) indirectly decrease HTT expression by increasing the promoter activity of HTT-AS, the gene antisense to HTT that appears to inhibit expression of HTT.
We developed and employed a high throughput screen for modifiers of HTT and HTT-AS promoter activity using luminescent reporter HEK293 cells; of the 52,041 compounds tested, we identified 898 replicable hits. We used a rigorous stepwise approach to assess compound toxicity and the capacity of the compounds to specifically lower huntingtin protein in 5 different cell lines, including HEK293 cells, HD lymphoblastoid cells, mouse primary neurons, HD iPSCs differentiated into cortical-like neurons, and HD hESCs. We found no compounds which were able to lower huntingtin without lowering cell viability in all assays, though the potential efficacy of a few compounds at non-toxic doses could not be excluded.
SEQUENCE No. (1, 2, 3, etc.); […] […]
7; Detection; Luminescence; FLuc […]
1; High-throughput screening, measuring luminescence from a Hek293 luciferase reporter, was performed in 1,536 well white-walled tissue-culture treated plates. […]
4; Cells were then incubated for 24 hours at 37 degrees C prior to luminescence measurements.
5; In all cases, luminescence was measured using the Dual-Glo Luciferase Reporter Assay System (Promega) following the manufacturer's instructions. […]
7; Luminescence signal was obtained using the PerkinElmer ViewLux plate reader. […]

Row | SMILES | activity change, negative = inhibition
1 | CCC(=O)N(c1ccccc1)C1(COC)CCN(CCc2cccs2)CC1 | inactive: -9.49% [at 116 µM]
2 | CCC(=O)N(c1ccccc1)C1(COC)CCN(CCn2nnn(CC)c2=O)CC1 | inactive: -2.18% [at 116 µM]
3 | CN(CCCl)CCCl | inactive: -13.6% and inactive: -12.3%
